Test system: Ba/F3-MER cells
Assay: Cell viability assay (MTS)
Assay type: cell-based
Settings: 72 h

IC50: 0.788 µM
SMILES: Nc1nc(Nc2ccc3c(c2)CC[C@@H](N2CCCC2)CC3)nn1-c1cc2c(nn1)-c1ccccc1CCC2 [Compound 3, Bemcentinib, reference compound]
